Earlier results as cited in patent US9555061B2, “Synthesis and analysis of compounds capable of inducing differentiation of human mesenchymal stems cells into hepatocytes” (National University Corporation Torrori University, priority 2011, dated 2017).

Protein sequences, listed by entry. Tags and fused reporters are not part of them.
UniProt P35222, whole entry: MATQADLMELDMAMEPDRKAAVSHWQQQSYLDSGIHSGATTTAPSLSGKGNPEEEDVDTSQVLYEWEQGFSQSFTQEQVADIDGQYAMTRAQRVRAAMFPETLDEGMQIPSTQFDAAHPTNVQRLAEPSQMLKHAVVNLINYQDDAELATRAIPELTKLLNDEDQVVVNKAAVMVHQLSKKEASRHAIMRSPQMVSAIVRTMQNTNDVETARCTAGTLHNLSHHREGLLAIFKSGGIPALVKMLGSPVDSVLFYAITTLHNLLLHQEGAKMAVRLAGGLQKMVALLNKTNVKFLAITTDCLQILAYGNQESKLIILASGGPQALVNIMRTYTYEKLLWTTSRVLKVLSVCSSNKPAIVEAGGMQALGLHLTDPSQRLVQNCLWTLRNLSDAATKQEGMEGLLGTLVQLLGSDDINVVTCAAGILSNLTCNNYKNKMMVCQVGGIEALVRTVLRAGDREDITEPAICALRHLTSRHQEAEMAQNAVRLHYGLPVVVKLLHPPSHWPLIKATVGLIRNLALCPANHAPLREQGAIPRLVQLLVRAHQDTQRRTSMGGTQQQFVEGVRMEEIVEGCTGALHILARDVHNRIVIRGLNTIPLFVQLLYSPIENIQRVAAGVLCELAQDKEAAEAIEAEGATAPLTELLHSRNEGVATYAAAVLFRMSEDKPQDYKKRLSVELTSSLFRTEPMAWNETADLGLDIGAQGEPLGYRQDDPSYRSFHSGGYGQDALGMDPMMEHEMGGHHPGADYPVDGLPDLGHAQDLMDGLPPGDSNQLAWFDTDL

Target: interaction between β-catenin and TCF (Homo sapiens, UniProt P35222)
Conditions: reportedly; cited from earlier work

Cc1ccc(C=NNC(=O)c2ccccc2Oc2ccccc2)o1 [PNU-74654, N-[(5-methyl-2-furyl)methylideneamino]-2-phenoxy-benzamide]
inhibition of Wnt/β-catenin pathway by blocking the interaction between β-catenin and TCF: inhibits a Wnt/β-catenin pathway
